Laboratory results reported in the supplement of paper PMC12024424.
The entries are a selection whose mix differs from that of the whole data set.

Each compound was assayed on Staphylococcus aureus Sa2 (MRSA, cystic fibrosis isolate) (assay: growth reduction vs untreated control (OD550); higher = stronger antibacterial activity). Conditions: 0.1 mM; 24 h.
Experimental: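 Single-dose screen of the MedChem Express Drug Repurposing Library (0.1 mM, 1% DMSO) against planktonic MRSA S. aureus Sa2 (CF isolate) in TSB in 96-well plates, 37 °C aerobic, 24 h. Growth reduction is relative to the untreated inoculated control: OD550 of supernatant (blank-subtracted) and confirmation by viable CFU count. Assays were run in triplicate and repeated twice.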

SMILES	growth reduction [%]
COc1cc(Br)c(C[N+]2(CCOCCC3CCC4CC3C4(C)C)CCOCC2)cc1OC (stereo unspecified) [Pinaverium bromide]	100
